Experiments:
[1] = molecular target: T1, α7-nicotinic acetylcholine receptor (Rattus norvegicus, UniProt Q05941); conditions: cited from earlier work
[2] = molecular target: T1, α7-nicotinic acetylcholine receptor; assay type: binding

Amino acid sequences for entries named in this document (tags omitted). Residues count along the entry.
UniProt Q05941, 23-502: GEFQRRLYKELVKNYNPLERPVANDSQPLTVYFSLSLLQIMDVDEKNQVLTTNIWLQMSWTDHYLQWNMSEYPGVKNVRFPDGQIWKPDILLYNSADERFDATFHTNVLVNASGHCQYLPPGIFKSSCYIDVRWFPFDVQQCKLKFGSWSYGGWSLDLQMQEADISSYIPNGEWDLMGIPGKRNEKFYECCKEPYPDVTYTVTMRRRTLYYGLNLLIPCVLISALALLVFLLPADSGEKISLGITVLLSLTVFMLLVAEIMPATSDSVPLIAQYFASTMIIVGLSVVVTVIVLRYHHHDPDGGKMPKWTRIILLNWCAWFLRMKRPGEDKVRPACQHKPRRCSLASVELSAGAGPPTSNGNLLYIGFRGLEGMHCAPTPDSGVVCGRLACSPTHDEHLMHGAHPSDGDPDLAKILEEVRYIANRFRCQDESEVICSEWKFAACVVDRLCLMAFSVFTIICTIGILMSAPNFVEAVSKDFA

Row | Molecule | Kd [1] | Displacement of [3H]-epibatidine [2]
1 | [^125I]-α-bungarotoxin [[^125I]-α-bungarotoxin] | 0.38 nM | 
2 | CN1CCC[C@H]1c1cccnc1 [(S)-nicotine, reference compound] |  | fully displaced

Source: PMC3534778 (European journal of pharmacology, 2012)
